Source: PubChem BioAssay (NCI)
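How tested: cells in 96-well plates exposed to compound for 48 hours at five concentrations. At the GI50, growth is halved. TGI: concentration producing complete growth inhibition.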

Test system: MDA-MB-468 breast
Assay: growth of human tumour cells (NCI), 48 h

**Q.** Which GI50 does the source give for `BrCCN(CCBr)c1ccc2c(c1)Cc1ccccc1-2` here?
**A.** 1050 nM

**Q.** And the TGI?
**A.** 2790 nM
